Assays:
[1] = target: tissue factor-Factor VIIa (human) (UniProt P13726)
[2] = target: Human plasma kallikrein (human) (UniProt P03952)
[3] = target: Human Factor XIIa (human) (UniProt P00748)
Human plasmin (human) = Human plasmin (human) (UniProt P00747)
Human Factor XIa (human) [4] = target: Human Factor XIa (human) (UniProt P03951)
Human Factor Xa (human) = Human Factor Xa (human) (UniProt P00742)
Human thrombin (human) = Human thrombin (human) (UniProt P00734)
[5] = target: Human activated protein C (human) (UniProt P04070)
Human Factor XIa (human) [6] = target: Human Factor XIa (human) (UniProt P03951); experiment: enzyme inhibition of FXIa, chromogenic substrate, fit to the tight-binding equation (apparent Ki*)

Row | fraction of remaining proteolytic activity at 100 nM inhibitor (fraction of uninhibited rate) [1] | fraction of remaining proteolytic activity at 100 nM inhibitor (fraction of uninhibited rate) [2] | fraction of remaining proteolytic activity at 100 nM inhibitor (fraction of uninhibited rate) [3] | fraction of remaining proteolytic activity at 100 nM inhibitor (fraction of uninhibited rate) (Human plasmin (human)) | fraction of remaining proteolytic activity at 100 nM inhibitor (fraction of uninhibited rate) (Human Factor XIa (human) [4]) | fraction of remaining proteolytic activity at 100 nM inhibitor (fraction of uninhibited rate) (Human Factor Xa (human)) | fraction of remaining proteolytic activity at 100 nM inhibitor (fraction of uninhibited rate) (Human thrombin (human)) | fraction of remaining proteolytic activity at 100 nM inhibitor (fraction of uninhibited rate) [5] | Ki (Human Factor XIa (human) [6]) | Substance
1 | 1.01 | 0.34 | 1.01 | 0 | 0.67 | 0.99 | 0.97 | 0.84 |  | BPTI, bovine basic pancreatic trypsin inhibitor
2 |  |  |  |  |  |  |  |  | > 300 nM | BPTI, bovine basic pancreatic trypsin inhibitor (other; other documents disagree on this pair)
